Literature values in article PMC6767236, “Selective Cannabinoid 2 Receptor Agonists as Potential Therapeutic Drugs for the Treatment of Endotoxin-Induced Uveitis” (Molecules, 2019).
Read-outs that look alike come from different tables or passages of the source.

Chains of the proteins cited; added tags and fusions are not shown.
UniProt P34972, whole entry: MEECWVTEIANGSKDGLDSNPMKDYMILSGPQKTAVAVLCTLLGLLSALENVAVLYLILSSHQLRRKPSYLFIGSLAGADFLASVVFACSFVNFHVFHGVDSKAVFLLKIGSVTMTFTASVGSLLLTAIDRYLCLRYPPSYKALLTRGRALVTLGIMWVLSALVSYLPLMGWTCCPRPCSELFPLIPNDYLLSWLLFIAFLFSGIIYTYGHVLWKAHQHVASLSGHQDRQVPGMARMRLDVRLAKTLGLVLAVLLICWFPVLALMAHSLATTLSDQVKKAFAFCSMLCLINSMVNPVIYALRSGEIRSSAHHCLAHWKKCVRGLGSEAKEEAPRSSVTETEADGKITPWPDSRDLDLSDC

Key:
[1] = molecular target: T1, human CB2R (Homo sapiens, UniProt P34972); settings: read-out: hCB2R: beta arrestin EC50; * previously published; cited from earlier work
T1 construct: bgal (beta-galactosidase fragment of the PathHunter system, named only in the cell line's name); host or cells: CHO-K1 (CHOK1hCB2_bgal)

[2] = molecular target: T1, human CB2R; settings: read-out: hCB2R: cAMP EC50; * previously published; cited from earlier work
[3] = molecular target: T1, human CB2R; settings: read-out: hCB2R: Ki; [3H]-CP55940 displacement; * previously published; cited from earlier work

In the case of CCCCCCC(C)(C)c1cc(OC)c([C@H]2C=C(CO)[C@H]3C[C@@H]2C3(C)C)c(OC)c1 [HU308, {(1S,4S,5S)-4-[2,6-Dimethoxy-4-(2-methyloctan-2-yl)phenyl]-6,6-dimethylbicyclo[3.1.1]hept-2-en-2-yl}methanol, reference compound], the EC50 [1] is listed as 101 nM, the EC50 [2] is listed as 3 nM and the Ki [3] is listed as 10 nM.
